## Binding of CDR-mutated scFvs to a peptide of the spike HR2 region

Data: MIT Lincoln Laboratory AlphaSeq set, Engelhart et al. 2022, doi:10.1038/s41597-022-01779-4, as distributed in FLAb.

Antigen: PDVDLGDISGINAS, a 14-residue peptide of the SARS-CoV-2 spike HR2 region.

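The starting antibody came from a phage panning campaign against this peptide. The library (AAYL50) carries one to three amino acid substitutions per variant, with no insertions or deletions. In AlphaSeq, yeast of one mating type display the scFv and yeast of the other type display the target. Pairs that bind mate more often; barcode pairs of the diploids are counted by sequencing. Scores were corrected for input abundance and mapped to Kd with protein pairs of known affinity run in the same pool. Mating was done three times.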

The variants keep the heavy chain, the linker and the frameworks of Ab-14 (scFv order VH, three GGGGS repeats, VL).
VH: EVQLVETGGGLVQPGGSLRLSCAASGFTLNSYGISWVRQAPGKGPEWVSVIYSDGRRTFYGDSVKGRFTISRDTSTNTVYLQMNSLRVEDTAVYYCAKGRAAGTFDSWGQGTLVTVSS
VL: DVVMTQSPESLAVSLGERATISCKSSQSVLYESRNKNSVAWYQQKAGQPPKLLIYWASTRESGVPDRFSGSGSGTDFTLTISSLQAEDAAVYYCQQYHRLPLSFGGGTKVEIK

Substitutions are numbered in sequence along the VL above, starting at 1 (not Kabat). Scale: log10 of Kd in nM, estimated from mating counts; low values are strong binders. A pair that was not seen in that replicate is written "n.d."; this usually means weak binding, but a binder can also be missed. Parent in this assay: reference entry 0.65, copy in this library 1.68. As a blank, each scFv also met three strains without target: over library AAYL50, 18% of these pairings were detected, typically at 4.19 and seldom below 2.99. Also given: how often the same scFv was detected with the empty control strains, with their mean in brackets.

changes | log10 Kd, replicates | signal with controls
L30Y S33A R60F | 4.85 / n.d. / n.d. | 0/9
E32T N35I A40L | n.d. / n.d. / 4.94 | 2/9 (4.23)
S25P V39R P101A | n.d. / n.d. / n.d. | 2/9 (4.03)
L30Q V39F R99F | n.d. / n.d. / n.d. | 1/9 (3.51)
Q27M L30A W56G | -0.34 / -0.01 / -0.24 | 5/9 (4.93)
R34P S58C Q96T | n.d. / n.d. / n.d. | 0/9
S28M R34K N35P | 1.22 / 1.55 / 1.79 | 4/9 (3.87)
S33L S38D Q95W | n.d. / n.d. / 3.50 | 1/9 (4.42)
Y31V P101T L102S | n.d. / n.d. / 5.68 | 2/9 (3.40)
W56C T59G L100C | n.d. / n.d. / n.d. | 4/9 (4.56)
Q96S L100K P101E | n.d. / n.d. / n.d. | 0/9
Y31C S58E L102A | 1.58 / 1.57 / 1.62 | 1/9 (6.06)
V29L S58H T59R | 1.64 / 1.62 / 2.56 | 3/9 (3.19)
Q27S L30M R34W | 0.95 / 1.18 / 1.06 | 2/9 (6.26)
S25T E32D R99Y | 0.91 / 1.30 / 1.16 | 0/9
Q96G P101L L102S | 4.38 / n.d. / n.d. | 0/9
S25P R34Q A40H | n.d. / 3.94 / n.d. | 3/9 (4.79)
V29G E32G L102S | n.d. / n.d. / n.d. | 0/9
S33F L100H | n.d. / 4.39 / n.d. | 1/9 (4.05)
Y31R T59L R60T | 5.76 / 3.36 / n.d. | 1/9 (4.10)
A57G S62K R99K | 0.83 / 0.79 / 0.89 | 0/9
K24G Q27G S103E | 1.95 / 1.92 / 2.22 | 2/9 (3.52)
N35I H98C | 2.46 / 1.81 / 1.66 | 0/9
K24G V29T N35P | 3.59 / 3.10 / 4.32 | 5/9 (4.44)
K24F S26E E32L | 3.58 / 2.43 / n.d. | 0/9
S62V | 0.80 / 0.88 / 0.69 | 5/9 (3.88)
Y31G N37M | 0.65 / 0.88 / 0.81 | 4/9 (3.84)
K24R A40Y S103D | n.d. / n.d. / n.d. | 0/9
K24P R34F K36V | 3.37 / n.d. / n.d. | 3/9 (4.93)
Q27F V29P L30M | n.d. / 4.01 / 5.84 | 4/9 (4.41)

Excerpt, the final 3 entries:

changes	log10 Kd, replicates	signal with controls
K24R A40Y S103D	n.d. / n.d. / n.d.	0/9
K24P R34F K36V	3.37 / n.d. / n.d.	3/9 (4.93)
Q27F V29P L30M	n.d. / 4.01 / 5.84	4/9 (4.41)